# Test results reported in patent US4518711A, “Conformationally constrained cyclic enkephalin analogs with delta receptor specificity” (Gibson-Stephens Institute, priority 1983, dated 1985).
# By UniProt entry, the sequences of proteins in these tests, tags left out.
# UniProt P33533, whole entry: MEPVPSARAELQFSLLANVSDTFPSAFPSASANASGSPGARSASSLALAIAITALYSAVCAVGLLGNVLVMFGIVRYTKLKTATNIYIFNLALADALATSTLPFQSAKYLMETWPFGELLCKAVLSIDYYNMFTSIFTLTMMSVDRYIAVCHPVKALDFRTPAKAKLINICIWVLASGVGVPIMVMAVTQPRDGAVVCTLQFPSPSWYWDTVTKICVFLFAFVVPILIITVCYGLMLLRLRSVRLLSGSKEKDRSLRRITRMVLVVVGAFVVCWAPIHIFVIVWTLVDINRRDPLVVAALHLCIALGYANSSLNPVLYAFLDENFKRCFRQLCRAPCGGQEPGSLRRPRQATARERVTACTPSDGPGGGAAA
# Target: T1, delta receptors (rat brain membrane preparations) (Rattus norvegicus, UniProt P33533)
# T1 construct: Whole brains with cerebellum removed were homogenized in 100 volumes of Tris-HCl buffer; from tissue; host or cells: rat whole brain (cerebellum removed) membrane homogenate
# Assay: Rat brain binding assay, displacement of [3H][D-Ala2, D-Leu5]enkephalin
smiles,measurement,value
"CSCC[C@H](NC(=O)[C@H](Cc1ccccc1)NC(=O)CNC(=O)CNC(=O)[C@@H](N)Cc1ccc(O)cc1)C(=O)O [[Met^5]Enkephalin, H2 N-Tyr-Gly-Gly-Phe-Met-OH]",IC50,1.75 nM
